# Source: PubChem BioAssay AID686954 (Sanford-Burnham Center for Chemical Genomics, 2013)
# Amino acid sequences for entries named in this document (tags omitted).
# UniProt Q96SD1, whole entry, looked up: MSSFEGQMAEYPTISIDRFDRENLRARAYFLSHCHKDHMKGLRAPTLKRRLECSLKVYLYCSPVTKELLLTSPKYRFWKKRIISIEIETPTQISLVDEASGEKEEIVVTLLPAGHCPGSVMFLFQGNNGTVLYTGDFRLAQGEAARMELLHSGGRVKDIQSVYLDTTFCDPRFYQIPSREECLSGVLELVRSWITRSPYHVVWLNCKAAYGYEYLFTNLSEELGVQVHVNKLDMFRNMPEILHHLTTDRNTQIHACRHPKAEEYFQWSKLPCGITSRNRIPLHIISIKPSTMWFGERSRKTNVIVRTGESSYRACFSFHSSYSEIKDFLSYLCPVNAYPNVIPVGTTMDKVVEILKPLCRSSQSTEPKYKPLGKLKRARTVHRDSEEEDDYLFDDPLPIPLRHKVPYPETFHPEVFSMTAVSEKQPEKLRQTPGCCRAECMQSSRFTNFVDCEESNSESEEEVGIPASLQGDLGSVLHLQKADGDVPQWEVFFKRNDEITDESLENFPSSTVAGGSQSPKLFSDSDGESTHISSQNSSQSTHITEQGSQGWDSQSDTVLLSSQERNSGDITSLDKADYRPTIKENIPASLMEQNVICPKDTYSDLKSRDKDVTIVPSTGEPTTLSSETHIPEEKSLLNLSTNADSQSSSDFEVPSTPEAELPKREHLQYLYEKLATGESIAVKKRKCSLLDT
# Only a part is listed here, and it is no random draw. Activity calls are given as the source filed them.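 Rule for the calls: active = at 10 µM dose, at least 30% inhibition, measured as corrected fluorescence normalized to stimulator and neutral control wells; inactive = the rest.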
# Target: Protein artemis (Homo sapiens) (UniProt Q96SD1)
# Assay: blockers of Artemis DNA hairpin overhang cleavage – biochemical, fluorescence intensity, FAM/BHQ-1 hairpin substrate, primary screen (AID 686954)
# Settings: recombinant Artemis, quenched FAM hairpin cleavage fluorescence; at 10 µM; hits give high values
row,SMILES,inhibition
1,O=C(COc1ccccc1)OC1CN2CCC1CC2 (stereo not given),inactive: -2.9%
2,CCN(CC)C(=S)SC(NC=O)C(Cl)(Cl)Cl (stereo not given),inactive: 3.65%
3,Cc1cccc(OCC(=O)OC2CN3CCC2CC3)c1 (stereo not given),inactive: 1.57%
4,Cc1ccc(OCC(=O)OC2CN3CCC2CC3)cc1 (stereo not given),inactive: 9.99%
5,O=P(Nc1nccs1)(c1ccccc1)c1ccccc1,inactive: 2.66%
6,CCC(=O)N1C2C3N(C(=O)CC)C1C1N(C(=O)CC)C(C(N1C(=O)CC)N3C(=O)CC)N2C(=O)CC,inactive: -1.32%
7,CN1CCCC(OC(=O)C(c2ccccc2)c2ccccc2)C1 (stereo not given),inactive: -8.79%
8,CCOP(=O)(Nc1ccccc1)OCC,inactive: 3.58%
9,CC(=O)N1C2C3N(C(C)=O)C1C1N(C(C)=O)C(C(N1C(C)=O)N3C(C)=O)N2C(C)=O,inactive: 5.67%
10,CC1CCN(C(=O)Oc2c(Cl)cc(Cl)c3cccnc23)CC1,inactive: 0.37%
